Experimental data reported in patent US8889153B2, “Combination of immunomodulator and anti-pathogenic agent” (priority 2008, dated 2014).

System: Punta Toro virus - Adames strain
Assay type: in vivo, Punta Toro virus (host: C57BL/6 mice)

NC(=O)c1ncn([C@@H]2O[C@H](CO)[C@@H](O)[C@H]2O)n1 [Ribavirin, 1-(β-D-Ribofuranosyl)-1H-1,2,4-triazol-3-carboxamide, reference compound]
Number of survivors (Ribavirin 50 mg/kg/day, 2 × day × 5 days i.p., start 4 h prior to infection, 21 days): 10/10*** | Hepatic parameters (ALT) ALT ± Standard Deviation (mouse, in vivo): 22 ± 23 UI/liter | Parameters of Hepatic Damage (Score) Score ± Standard Deviation (mouse, in vivo): 1.4 ± 0.5 | Percentage of animals with detectable viruses, Liver (mouse, in vivo): <2.8 (0) % | Percentage of animals with detectable viruses, Serum (mouse, in vivo): <2.8* (0) % | Viral load ± Standard deviation, Liver (mouse, in vivo): <2.8 (0) | Viral load ± Standard deviation, Serum (mouse, in vivo): <2.8* (0)

Marks after values point to notes of the source that are not given here.
